Reference: patent US10227373B2 (priority 2014, dated 2019)

Amino acid sequences for entries named in this document (tags omitted). Residues count along the entry.
UniProt A0A5F9DS62, 1-428: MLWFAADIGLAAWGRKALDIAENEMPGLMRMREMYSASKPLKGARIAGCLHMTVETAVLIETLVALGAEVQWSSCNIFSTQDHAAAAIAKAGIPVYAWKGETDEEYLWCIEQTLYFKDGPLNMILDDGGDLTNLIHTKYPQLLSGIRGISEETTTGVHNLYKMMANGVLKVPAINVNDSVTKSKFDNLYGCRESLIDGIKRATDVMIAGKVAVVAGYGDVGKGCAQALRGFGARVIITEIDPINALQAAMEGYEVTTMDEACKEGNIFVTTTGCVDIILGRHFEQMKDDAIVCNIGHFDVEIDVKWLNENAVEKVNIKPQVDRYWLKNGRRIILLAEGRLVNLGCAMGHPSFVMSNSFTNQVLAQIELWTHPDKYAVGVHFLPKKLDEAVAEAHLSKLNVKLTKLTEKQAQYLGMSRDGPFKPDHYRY

Target: S-adenosylhomocysteine hydrolase (SAHase) (Oryctolagus cuniculus, UniProt A0A5F9DS62)
Assay: SAHase inhibition (release of free homocysteine)
Format: biochemical
Conditions: SAHase from rabbit erythrocytes; read-out: IC50 versus SAHase

Substance: Neplanocin A
- IC50: 0.9 nM
